Earlier results, collected in patent publication US20230414772A1, “MULTI-SPECIFIC HUMAN ALBUMIN NANOPARTICLES DECORATED WITH ANTIBODY FRAGMENTS AND LOADED WITH CYTOTOXICS” (ANBITION S.R.L., priority 2020, published 2023).

Substance: HSA: human serum albumin, plasma protein of 66.5 kDa
- solubility (40% ethanol): soluble
- stability on heating (60° C., 10 h): without structural loss
